Reference: PubChem BioAssay (NCATS)
This is a selection; strong and weak results do not stand in their true shares. Records with an inconclusive call do not appear. The source made the active and inactive calls. Unless noted, the call rests on the fitted dose curve; in most records, active means well fitted curve in the direction sought with a large enough effect; inconclusive means small, poorly fitted or top-dose-only effect, or another doubt; inactive means no such curve, though single readings can be large; an effect the other way counts as inactive or inconclusive.

By UniProt entry, the sequences of proteins in these tests, tags left out. Where a name states a change or a piece, a line headed by the entry shows the natural chain unless it says otherwise.
UniProt O94782: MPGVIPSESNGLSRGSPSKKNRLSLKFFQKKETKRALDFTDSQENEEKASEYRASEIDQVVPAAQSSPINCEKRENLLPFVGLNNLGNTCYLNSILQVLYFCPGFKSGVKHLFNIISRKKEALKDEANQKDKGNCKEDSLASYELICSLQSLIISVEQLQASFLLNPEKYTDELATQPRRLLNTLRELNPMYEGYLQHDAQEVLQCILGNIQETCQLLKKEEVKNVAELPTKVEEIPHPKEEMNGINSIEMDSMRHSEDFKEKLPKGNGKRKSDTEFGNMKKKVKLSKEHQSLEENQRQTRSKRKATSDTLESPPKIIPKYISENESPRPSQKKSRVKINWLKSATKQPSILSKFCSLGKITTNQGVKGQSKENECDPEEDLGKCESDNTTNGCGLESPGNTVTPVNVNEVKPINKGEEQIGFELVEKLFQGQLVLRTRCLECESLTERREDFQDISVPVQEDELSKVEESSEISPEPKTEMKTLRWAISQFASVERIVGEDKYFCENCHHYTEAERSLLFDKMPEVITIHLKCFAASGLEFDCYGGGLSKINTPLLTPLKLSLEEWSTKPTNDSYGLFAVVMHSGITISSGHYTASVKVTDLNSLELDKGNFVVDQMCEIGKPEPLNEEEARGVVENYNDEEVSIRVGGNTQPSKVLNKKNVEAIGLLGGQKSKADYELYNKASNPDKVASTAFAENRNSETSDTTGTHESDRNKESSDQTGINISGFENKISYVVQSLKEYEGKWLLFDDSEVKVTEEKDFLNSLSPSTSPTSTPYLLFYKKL
UniProt P10275: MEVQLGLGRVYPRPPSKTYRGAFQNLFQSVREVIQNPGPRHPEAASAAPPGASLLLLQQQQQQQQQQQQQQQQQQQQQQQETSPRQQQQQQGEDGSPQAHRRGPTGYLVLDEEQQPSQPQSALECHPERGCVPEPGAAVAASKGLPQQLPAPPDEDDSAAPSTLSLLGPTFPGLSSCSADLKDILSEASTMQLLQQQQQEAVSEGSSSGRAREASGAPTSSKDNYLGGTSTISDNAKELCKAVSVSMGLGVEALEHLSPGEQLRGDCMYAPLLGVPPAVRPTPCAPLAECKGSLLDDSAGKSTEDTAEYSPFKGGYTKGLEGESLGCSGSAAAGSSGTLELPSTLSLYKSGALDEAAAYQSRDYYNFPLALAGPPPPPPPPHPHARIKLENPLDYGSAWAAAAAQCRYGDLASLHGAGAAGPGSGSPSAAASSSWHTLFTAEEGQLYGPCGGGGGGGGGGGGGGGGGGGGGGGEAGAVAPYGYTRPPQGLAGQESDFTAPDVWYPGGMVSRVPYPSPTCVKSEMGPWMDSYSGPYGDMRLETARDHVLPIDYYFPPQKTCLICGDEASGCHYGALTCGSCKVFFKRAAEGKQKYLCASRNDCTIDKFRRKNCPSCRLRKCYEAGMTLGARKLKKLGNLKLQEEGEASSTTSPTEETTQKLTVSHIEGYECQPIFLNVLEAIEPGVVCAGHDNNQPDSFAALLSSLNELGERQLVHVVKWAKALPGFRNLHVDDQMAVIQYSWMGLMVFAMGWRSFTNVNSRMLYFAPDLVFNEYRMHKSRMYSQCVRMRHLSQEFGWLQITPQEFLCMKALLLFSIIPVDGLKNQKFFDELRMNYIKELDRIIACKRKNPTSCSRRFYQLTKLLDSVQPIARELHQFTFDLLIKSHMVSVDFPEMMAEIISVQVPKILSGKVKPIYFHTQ

Assays:
[1] = Cell Viability - LYMP1-003 - Assay at 40 hr (AID 964); details: LYMP1-003 lymphoblastoid viability; at 92.2 µM (top of the series); further: on the % scale 0 is the no-effect control and ±100 the full control effect; nearly all actives have a fitted effect of over 60% in size
Outline: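 Cells were seeded at 2500 per well and incubated 5 hr at 37 C. Compounds were added across a concentration series and left 40 hr at 37 C. CellTiter-Glo was added for 30 min at room temperature before luminescence reading.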

[2] = Cell Viability - LYMP2-003 (AID 965); details: LYMP2-003 lymphoblastoid cell viability; at 92.2 µM (top of the series);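 further: cells exposed to compounds for 24 h before reading; 0% = DMSO only and full effect = 92 µM tetraoctylammonium bromide; nearly all actives have a fitted effect of over 50% in size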
Outline: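 CellTiter-Glo luminescence (cellular ATP) after 24 h compound exposure at 37 C in complete medium; 2500 cells/well, 5 h settling beforehand. Concentration-response fitted to standard Hill equation for AC50. Tetraoctylammonium bromide served as positive control.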

[3] = Cell Viability - LYMP2-004 (AID 966); details: LYMP2-004 lymphoblastoid cell viability, qHTS; at 92.2 µM (top of the series);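 further: plate controls were DMSO only for no effect and tetraoctylammonium bromide control for full effect; nearly all actives have a fitted effect of over 65% in size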
Outline: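 Cells seeded 2500/well, rested 5 hr at 37 C, dosed across a concentration series, incubated 24 hr at 37 C, then CellTiter-Glo added for 30 min at room temperature and luminescence read. Hill fitting gave AC50.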

[4] = Cell Viability - LYMP2-009 (AID 968); details: LYMP2-009 lymphoblastoid cell viability; at 92.2 µM (top of the series);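 further: 0% = DMSO alone and the full-kill end = tetraoctylammonium bromide at 92 µM; nearly all actives have a fitted effect of over 55% in size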
[5] = Cell Viability - LYMP2-011 (AID 969); details: LYMP2-011 lymphoblastoid cells viability; at 92.2 µM (top of the series);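 further: 0% = DMSO only and full inhibition = 92 µM tetraoctylammonium bromide; nearly all actives have a fitted effect of over 60% in size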
Outline: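 2500 cells/well, 5 hr 37 C; compound added, 24 hr 37 C; CellTiter-Glo 30 min RT; luminescence. qHTS concentration-response, Hill-equation AC50. Tetraoctylammonium bromide positive control.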

[6] = Cell Viability - LYMP2-013 (AID 970); details: LYMP2-013 lymphoblastoid cells viability; at 92.2 µM (top of the series);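 further: 0% = DMSO only and full inhibition = tetraoctylammonium bromide control; nearly all actives have a fitted effect of over 55% in size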
[7] = Cell Viability - LYMP2-015 (AID 971); details: LYMP2-015 lymphoblastoid cell viability; at 92.2 µM (top of the series);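 further: 0% = DMSO only and full effect = 92 µM tetraoctylammonium bromide; nearly all actives have a fitted effect of over 55% in size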
[8] = Cell Viability - LYMP2-017 (AID 972); details: LYMP2-017 lymphoblastoid cell viability; at 92.2 µM (top of the series); further: on the % scale 0 is the no-effect control and ±100 the full control effect; nearly all actives have a fitted effect of over 55% in size
[9] = Cell Viability - LYMP2-019 (AID 973); details: LYMP2-019 lymphoblastoid cell line viability; at 92.2 µM (top of the series)
[10] = Cell Viability - LYMP2-021 (AID 974); details: LYMP2-021 lymphoblastoid cells viability; at 92.2 µM (top of the series)
[11] = Cell Viability - LYMP2-023 (AID 975); details: LYMP2-023 lymphoblastoid cell viability; at 92.2 µM (top of the series)
Outline: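 2500 cells/well, 5 hr 37 C; cpd 24 hr 37 C; CellTiter-Glo, 30 min RT; luminescence. qHTS conc-response, Hill fit -> AC50. Pos ctrl tetraoctylammonium bromide.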

[12] = Cell Viability - LYMP2-025 (AID 976); details: LYMP2-025 lymphoblastoid cell viability; at 92.2 µM (top of the series);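 further: plate controls were DMSO only for no effect and tetraoctylammonium bromide control for full effect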
Outline: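 Seed 2500 LYMP2-025 cells/well; 5 hr at 37 C; add compound; 24 hr at 37 C; add CellTiter-Glo; 30 min RT; read luminescence. AC50 from Hill-modelled concentration-response.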

[13] = Cell Viability - LYMP2-002 (AID 977); details: LYMP2-002 lymphoblastoid cell viability, qHTS; at 92.2 µM (top of the series);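 further: plate controls were DMSO only for no effect and 92 µM tetraoctylammonium bromide for full effect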
Outline: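 Human lymphoblastoid LYMP2-002 cells, 2500 per well, exposed to compounds for 24 h at 37 C in complete medium; viability read as intracellular ATP by CellTiter-Glo luminescence, AC50 from Hill fits.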

[14] = Cell Viability - LYMP2-006 (AID 978); details: LYMP2-006 lymphoblastoid cell viability, qHTS; at 92.2 µM (top of the series); further: on the % scale 0 is the no-effect control and ±100 the full control effect; nearly all actives have a fitted effect of over 60% in size
Outline: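 qHTS, 1536-well; 2500 cells/well, 5 hr 37 C; cpd 24 hr 37 C; CellTiter-Glo 30 min RT; luminescence. Tetraoctylammonium bromide pos. ctrl. AC50 via Hill eqn.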

[15] = Cell Viability - LYMP2-007 (AID 979); details: LYMP2-007 lymphoblastoid cell viability; at 92.2 µM (top of the series);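 further: cells exposed to compound for 24 h before reading; 0% = DMSO only and the negative end = 92 µM tetraoctylammonium bromide; nearly all actives have a fitted effect of over 60% in size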
[16] = Cell Viability - LYMP2-008 (AID 980); details: LYMP2-008 lymphoblastoid cell viability, qHTS; at 92.2 µM (top of the series)
Outline: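 qHTS, human lymphoblastoid line, 2500 cells/well; 5 hr preincubation, 24 hr compound, 37 C. CellTiter-Glo ATP luminescence. AC50 via Hill equation. Tetraoctylammonium bromide positive control.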

[17] = Cell Viability - LYMP2-010 (AID 981); details: LYMP2-010 lymphoblastoid cell viability, qHTS; at 92.2 µM (top of the series)
[18] = Cell Viability - LYMP2-012 (AID 982); details: LYMP2-012 lymphoblastoid cell viability qHTS; at 92.2 µM (top of the series)
[19] = Cell Viability - LYMP2-014 (AID 983); details: LYMP2-014 lymphoblastoid cells, viability qHTS; at 92.2 µM (top of the series);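 further: plate controls were DMSO only for no effect and 92 µM tetraoctylammonium bromide for full effect; nearly all actives have a fitted effect of over 50% in size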
Outline: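 Luminescent ATP signal (CellTiter-Glo, 30 min at room temperature) serves as the viability read-out after 24 hr compound exposure at 37 C. Cells were seeded at 2500 per well and settled 5 hr beforehand.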

[20] = Cell Viability - LYMP2-016 (AID 984); details: LYMP2-016 lymphoblastoid cell viability, qHTS; at 92.2 µM (top of the series)
Outline: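 qHTS, 1536-well: 2500 LYMP2-016 cells/well, 5 hr 37 C, compound added, 24 hr 37 C, CellTiter-Glo 30 min RT, luminescence. Tetraoctylammonium bromide positive control. AC50 via Hill fit.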

[21] = Cell Viability - LYMP2-018 (AID 985); details: LYMP2-018 lymphoblastoid cells, viability (qHTS); at 92.2 µM (top of the series);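 further: plate controls were DMSO only for no effect and tetraoctylammonium bromide at 92 µM for full effect; nearly all actives have a fitted effect of over 50% in size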
Outline: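 Luminescent ATP signal (CellTiter-Glo, read after 30 min at room temperature) reports viable cells after 24 hr compound treatment at 37 C. Concentration-response data were fitted to the standard Hill equation for AC50.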

[22] = Cell Viability - LYMP2-020 (AID 986); details: LYMP2-020 lymphoma cell viability, qHTS; at 92.2 µM (top of the series)
[23] = Cell Viability - LYMP2-022 (AID 987); details: LYMP2-022 lymphoblastoid cell viability; at 92.2 µM (top of the series)
[24] = Cell Viability - LYMP2-024 (AID 988); details: LYMP2-024 lymphoblastoid cell viability; at 92.2 µM (top of the series)
[25] = Cell Viability - LYMP2-026 (AID 989); details: LYMP2-026 lymphoblastoid cell viability, qHTS; at 92.2 µM (top of the series); further: on the % scale 0 is the no-effect control and ±100 the full control effect; nearly all actives have a fitted effect of over 50% in size
Outline: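 Luminescent ATP signal (CellTiter-Glo, 30 min room temperature) measures viable lymphoblastoid cells after 24 hr compound treatment at 37 C. Decreased ATP reflects acute toxicity; AC50 values come from Hill-equation modeling.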

[26] = Cell Viability - LYMP1-002 - Assay at 24 hr (AID 993); details: LYMP1-002 lymphoblastoid cells viability; at 92.2 µM (top of the series); further: on the % scale 0 is the no-effect control and ±100 the full control effect
Outline: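 Cells plated 2500/well, 5 hr 37 C; compounds added, 24 hr 37 C; CellTiter-Glo added, 30 min RT; luminescence read. Tetraoctylammonium bromide positive control. Hill-equation AC50.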

[27] = Cell Viability - LYMP1-002 - Assay at 40 hr (AID 994); details: LYMP1-002 lymphoblastoid cell viability; at 92.2 µM (top of the series)
Outline: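 Luminescent ATP signal served as the viability readout, with decreases taken as toxicity. Cells were treated with compounds across a concentration range for 40 hours at 37 C, and AC50 values came from standard Hill modeling.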

[28] = qHTS Assay for Identification of Small Molecule Inducers of Hypoxia Response (AID 2120; active means well fitted curve in the direction sought with a large enough effect in the signal ratio, with a control signal flat, not every such curve was filed as active; the % refers to the signal ratio; further: 0% is about no effect); details: hypoxia response reporter cells, beta-lactamase ratio readout; at 104 µM (top of the series)
Outline: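 ME-180 HRE-bla cells plated in Opti-MEM/0.5% dialyzed FBS, rested 4-5 h, then dosed with compound titrations by pin tool. After 17 h at 37 degrees C, CCF4 dye loaded 2.5 h at RT; 460/530 nm ratio gave %Activity and AC50.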

[29] = target: Ubiquitin carboxyl-terminal hydrolase 1 (Homo sapiens) (UniProt O94782); assay: Inhibitors of USP1/UAF1: Pilot qHTS (AID 504865); details: purified USP1/UAF1, Ub-rhodamine cleavage fluorescence;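 further: rhodamine fluorescence freed from ubiquitin-rhodamine substrate followed over time; top concentration of the series differs between compounds; on the % scale 0 is the no-effect control and ±100 the full control effect; nearly all actives have a fitted effect of over 35% in size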
[30] = target: Androgen receptor (Homo sapiens) (UniProt P10275); assay: qHTS assay for small molecule antagonists of androgen receptor signaling (AID 588516; active means well fitted curve in the direction sought with a large enough effect in the signal ratio, with a control signal flat, not every such curve was filed as active; the % refers to the signal ratio; further: on the % scale 0 is the no-effect control and ±100 the full control effect); details: AR-UAS-bla HEK293, beta-lactamase ratio, antagonist mode, 16 h; at 76.8 µM (top of the series)
[31] = target: Bile acid receptor (Homo sapiens) (UniProt Q96RI1); assay: qHTS assay for small molecule antagonists of farnesoid X receptor signaling (AID 588526; calls by dose curve; further: on the % scale 0 is the no-effect control and ±100 the full control effect); details: HEK293T FXR-UAS-bla, beta-lactamase ratio, antagonist mode; at 76.7 µM (top of the series)
[32] = target: Bile acid receptor (Homo sapiens) (UniProt Q96RI1); assay: qHTS assay for small molecule agonists of farnesoid X receptor signaling (AID 588527; calls by dose curve;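 further: 0% = vehicle basal and 100% = reference agonist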); details: HEK293T FXR-UAS-bla, beta-lactamase ratio, 16 h; active compounds read high

NC(=O)Nc1ccc([As](=O)(O)O)cc1
inactive: activity change, negative = cytotoxic [1] -5.81% | activity change, negative = cytotoxicity [2] 11.2% | activity change, negative = cytotoxicity [3] -12.7% | activity change, negative = viability loss [4] -7.26% | viability change, negative = cytotoxic [5] 1.85% | activity change, negative = cytotoxic [6] -4.04% | activity change, negative = lower viability [7] -4.63% | activity change, negative = cytotoxicity [8] -2.42% | activity change, negative = cytotoxicity [9] -8.27% | activity change, negative = cytotoxicity [10] 2.52% | activity change, negative = cytotoxicity [11] -1.92% | activity change, negative = cytotoxicity [12] -6.99% | activity change, negative = cytotoxic [13] 0.116% | activity change, negative = cytotoxicity [14] 3.89% | activity change, negative = cytotoxicity [15] -9.23% | activity change, negative = cytotoxicity [16] -5.74% | activity, negative = cytotoxicity [17] -2.31% | activity change, negative = cytotoxicity [18] -1.24% | activity change, negative = cytotoxicity [19] 1.23% | activity change, negative = cytotoxicity [20] 1.59% | activity change, negative = cytotoxicity [21] -1.89% | activity change, negative = viability loss [22] -2.61% | viability change, negative = cytotoxic [23] -0.901% | activity change, negative = cytotoxicity [24] -17% | activity change, negative = cytotoxic [25] -7.77% | activity change, negative = cytotoxicity [26] 7.17% | viability change, negative = cytotoxic [27] 1.36% | activation [28] -0.297% | activity change, negative = inhibition ([29]; at 54.9 µM (top of the series)) 7.07% | activity change, negative = inhibition ([29]; at 114 µM (top of the series)) -0.715% | activity change, negative = inhibition [30] 9.65% | activity change, negative = inhibition [31] -2.5% | activation [32] -2.31%
